Assay results reported in PubChem BioAssay AID504692 (The Scripps Research Institute Molecular Screening Center, 2011).
Values joined by “and” are separate entries in the source; they are usually repeats but may differ in a detail not shown here. Equal values may be shown once. This is a selection; strong and weak results do not stand in their true shares. Active and inactive are the calls of the source. Cut-off read from the data, not from the text of the source: active = activation mostly above about 9.5% (no sharp cut-off); inactive = mostly below about 7.6%.

By UniProt entry, the sequences of proteins in these tests, tags left out.
UniProt P47898, whole entry, looked up: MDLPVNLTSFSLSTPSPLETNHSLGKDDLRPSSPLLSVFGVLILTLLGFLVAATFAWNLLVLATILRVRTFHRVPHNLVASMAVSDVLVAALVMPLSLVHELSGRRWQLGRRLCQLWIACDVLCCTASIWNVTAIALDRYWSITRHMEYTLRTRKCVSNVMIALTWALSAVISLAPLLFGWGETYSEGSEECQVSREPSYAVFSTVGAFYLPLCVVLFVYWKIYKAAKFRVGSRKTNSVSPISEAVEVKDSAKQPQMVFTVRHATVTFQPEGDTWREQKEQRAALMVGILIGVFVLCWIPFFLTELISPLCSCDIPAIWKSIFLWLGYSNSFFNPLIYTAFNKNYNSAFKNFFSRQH

What follows are molecules tested against 5-hydroxytryptamine receptor 5A (Homo sapiens) (UniProt P47898) (assay: activation of human 5-HT5A receptor – cell-based, luminescence, full-deck HTS, counter-screen for OPRM1-OPRD1 heterodimer agonist project, primary screen (AID 504692;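 note: 0% = cells with vehicle only and 100% = reference agonist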)). Conditions: HTR5A agonist assay, at 9.3 µM, active compounds read high.

Row | SMILES | activation
1 | CCN(CC)CCn1c(NCc2ccc3c(c2)OCO3)nc2ccccc21 | inactive: -0.36%
2 | O=C(NCc1ccccc1)N1CCn2c(nc3ccccc32)C1 | inactive: 0.33%
3 | CC(NC(=O)[C@H](C)NC(=O)N1CCn2c1nc1ccccc12)c1ccccc1 (stereo not given in full) | inactive: 1.78%
4 | O=C1Nc2ccccc2C12Nc1ccccc1-c1nc3ccccc3n12 (stereo not given) | inactive: 5.31%
5 | Cc1ccccc1OCC(O)Cn1c(=N)n(CCN2CCOCC2)c2ccccc21 (stereo not given) | inactive: -1.56% and inactive: 2%
6 | Cc1ccccc1NC(=O)Cn1c(=O)n(C)c2ccccc21 | inactive: 4.16%
7 | C[C@H](NC(=O)N1CCn2c1nc1ccccc12)C(=O)NCc1ccco1 | inactive: -1.61%
8 | O=C(Nc1ccc(F)cc1)N1CCn2c(nc3ccccc32)C1 | inactive: -1.25%
9 | CN1CCC(N(C)c2nc(-c3ccc([N+](=O)[O-])cc3)nc3ccccc23)CC1 | inactive: 9.65%
10 | Cc1ccc2c(c1)C1CN(C)CCC1N2S(=O)(=O)c1ccccc1F (stereo not given) | inactive: -1.05%
11 | N=c1n(CCCOc2ccc(Br)cc2)c2ccccc2n1CC(N)=O | inactive: -1.05%
12 | O=C(Cn1c2[n+](c3ccc(C(F)(F)F)cc31)CCCCC2)Nc1ccc(Br)cc1 | inactive: -3.34%
13 | CC(O)c1nc2ccccc2n1CC(=O)Nc1ccc(F)cc1Cl (stereo not given) | inactive: 5.67%
14 | COc1ccc(NC(=O)Cn2c(NCC(C)O)nc3ccccc32)cc1Cl (stereo not given) | inactive: -2.46%
15 | CC(C)CN(C(=O)Cn1c(Cl)nc2c1c(=O)n(C)c(=O)n2C)C1CCS(=O)(=O)C1 (stereo not given) | inactive: -1.07%
16 | COc1ccc(CCNC(=O)[C@H](CCSC)NC(=O)N2CCn3c2nc2ccccc23)cc1OC | inactive: -3.98%
17 | Cc1ccc2nc3c(c(C)c2c1)CC(C(Cl)Cl)S3 (stereo not given) | inactive: -3.04%
18 | CSc1nc(N)nc2c1ncn2CC(=O)N[C@H](C)c1cccc2ccccc12 | inactive: 2.33%
19 | CN(C)CCn1cnc2c1c(=O)n(C)c(=O)n2C | inactive: -1.59%
20 | COc1ccc(S(=O)(=O)N2CCCCC2)cc1NC(=O)Cn1cnc2c1c(=O)n(C)c(=O)n2C | inactive: 1.93%
21 | O=C(Cn1c(C(F)(F)F)nc2ccccc21)N/N=C/c1ccco1 | inactive: -2.69%
22 | Cn1c(=O)c2c(nc(N3CCOCC3)n2CCNC2=NCCC2)n(C)c1=O | inactive: 1.06%
23 | CCOC(=O)Cn1c(=O)c2c(nc3n2CCN3Cc2ccccc2)n(C)c1=O | inactive: 1.05%

Row | SMILES | activation
24 | Fc1ccc2c(c1)nnn2C1CCN(Cc2ccccc2)CC1 | inactive: -1.04%
25 | Cc1ccc(OP(=O)(Nc2ccc([N+](=O)[O-])cn2)Oc2ccc(C)cc2)cc1 | inactive: 2.53%
26 | COC(=O)[C@H](CCSC)NC(=O)Cn1cnc2c(NCc3ccccc3)ncnc21 | inactive: -0.15%
27 | CC(Cc1ccc(O)cc1)NCC(O)c1cc(O)cc(O)c1 (stereo not given) | inactive: 0.5%
28 | COc1ccc(/C=N/NC(=O)Cn2c(Cc3ccc(OC)c(OC)c3)nc3ccccc32)cc1 | inactive: 0.87%
29 | Brc1ccc(CNc2nc3ccccc3n2CCN2CCCCC2)cc1 | inactive: -4.24%
30 | Cc1ccc2c(c1)C1CN(C)CCC1N2S(=O)(=O)c1ccc(C#N)cc1 (stereo not given) | inactive: -2.46%
31 | Cc1nn2c3ccccc3n(CCN3CCCCC3)c2nc1=O | inactive: 0.44%
32 | FC(F)(F)c1ccc2c(c1)ncn2C1CCN(Cc2nnnn2C2CCCCC2)CC1 | inactive: 1.29%
33 | Nc1nc2ccccc2n1CCN1CCCC1 | inactive: -1.63%
34 | CC(C)NC(=S)N1CCn2c(nc3ccccc32)C1 | inactive: 1.72%
35 | CC1Cc2ccccc2N1C(=O)CSc1nc2ccccc2n1CC(=O)N1CCOCC1 (stereo not given) | inactive: 5.13%
36 | O=C(CCCCCNC(=O)N1CCn2c1nc1ccccc12)NCc1ccc(Cl)cc1 | inactive: -5.08%
37 | O=C(Cn1cnc2ccccc21)N/N=C/c1cccc([N+](=O)[O-])c1 | inactive: 0.67%
38 | NC(=O)Nc1ccc([As](=O)(O)O)cc1 | inactive: 0.68%
39 | O=C(Cn1cnc2c(NCc3ccccc3)ncnc21)NCCc1cc2ccccc2[nH]1 | inactive: -0.23%
40 | CCCCNC(=O)Cn1c(=O)n(C)c2ccccc21 | inactive: 2.46%
41 | CCOC(=O)C1=C(Cn2cnc3ccccc32)NC(=O)NC1c1ccc(OC)cc1 (stereo not given) | inactive: -3.41%
42 | Cc1nc2ccccc2n1C1CC(=O)N(N(C)C)C1=O (stereo not given) | inactive: 2.33%
43 | CC(=O)Nc1nc2ccccc2n1CCN1CCOCC1 | inactive: 2.93%
44 | Cc1cccc(C)c1NC(=O)Cn1cnc2c(=O)n(C)c(=O)n(C)c21 | inactive: 1.85%
45 | CC(=O)OCCNC(=O)Cn1cnc2c1c(=O)n(C)c(=O)n2C | inactive: 1.63%
46 | CCC(C)NC(=O)Cn1c(COc2ccc(Cl)cc2Cl)nc2ccccc21 (stereo not given) | inactive: 3.06%

Row | SMILES | activation
47 | Cn1c(=O)[nH]c(=O)c2c1ncn2CCN1CCOCC1 | inactive: -2.51%
48 | CCC(C)[C@H](NC(=O)N1CCn2c1nc1ccccc12)C(=O)NCc1ccc(OC)cc1 (stereo not given in full) | inactive: 2.79%
49 | Cn1c(=O)c2c(ncn2CC(=O)N(Cc2ccccc2)c2ccccn2)n(C)c1=O | inactive: -0.25%
50 | O=C(Nc1nc2ccccc2n1CCN1CCCC1)C1CCCCC1 | inactive: 0.72%
51 | CCN(CC)CCn1c(NCc2ccc(C)o2)nc2ccccc21 | inactive: 1.19%
52 | Cc1ccc(C(=O)Nc2nc3ccccc3n2CCN2CCCC2)cc1 | inactive: 2.12%
53 | CC1CCCCN1C(=O)Cn1cnc2c1c(=O)n(C)c(=O)n2C (stereo not given) | inactive: 3.5%
54 | O=[N+]([O-])c1ccc2c(c1)nnn2O | inactive: -1.77%
55 | CN(C)C(=O)c1cc([N+](=O)[O-])cc2c1-c1c(cc([N+](=O)[O-])cc1[N+](=O)[O-])C2=O | inactive: -1.97%
56 | CCc1cccc(C)c1NC(=O)Cn1c(NCCO)nc2ccccc21 | inactive: -1.1%
57 | Cc1ccc2c(c1)C1CN(C)CCC1N2C(=S)NC(=O)c1ccc(Br)cc1 (stereo not given) | inactive: -4.37%
58 | CC(C)CN(C(=O)Cn1c(C(F)(F)F)nc2ccccc21)C1CCS(=O)(=O)C1 (stereo not given) | inactive: 4.77%
59 | CN(C(=O)Cc1ccc(Cl)c(Cl)c1)[C@H]1CC[C@@]2(CCCO2)C[C@@H]1N1CCCC1 | inactive: 6.98%
60 | O=C(CSc1nc2ccccc2n1CC(=O)N1CCCC1)Nc1nccs1 | inactive: -3.57%
61 | O=C(Cn1cnc2ccccc21)N/N=C/c1ccccc1[N+](=O)[O-] | inactive: 0.95%
62 | N#CCCN(C(=O)COC(=O)C(O)(c1ccccc1)c1ccccc1)c1ccc(F)cc1 | inactive: 0.74%
63 | O=C(Nc1ccccc1)N1CCn2c1nc1ccccc12 | inactive: -4.58%
64 | COc1ccc(CNC(=O)[C@H](CCSC)NC(=O)N2CCn3c2nc2ccccc23)cc1 | inactive: 2.59%
65 | CCOC(=O)c1ccc(N2C(=O)CC(N3CCC(Nc4ccc(F)cc4)CC3)C2=O)cc1 (stereo not given) | inactive: -1.24%
66 | Cn1c(=O)c2c(nc(CN3CCN(c4ccccc4F)CC3)n2CCN2CCOCC2)n(C)c1=O | inactive: -1.41%
67 | CC(C)[C@H](NC(=O)N1CCn2c1nc1ccccc12)C(=O)NCc1ccco1 | inactive: 4.49%
68 | Fc1ccc2c(c1)nnn2C1CCN(Cc2c(Cl)cccc2Cl)CC1 | inactive: 0.51%
69 | CCOP1(=S)c2c(C)nn(CCC#N)c2N=C(c2ccc(F)cc2)N1C (stereo not given) | inactive: 7.52%

Row | SMILES | activation
70 | CN(C(=O)Cc1ccccc1)[C@@H]1CC[C@]2(CCCO2)C[C@H]1N1CCCC1 | inactive: -1.94%
71 | CC(C(O)c1ccccc1)N(C)CCn1cnc2c1c(=O)n(C)c(=O)n2C (stereo not given) | inactive: 0.83%
72 | C[C@H](NC(=O)N1CCn2c1nc1ccccc12)C(=O)NCc1ccc2c(c1)OCO2 | inactive: 3.32%
73 | CCN(CC)CCn1c(=N)n(CC(O)COc2ccccc2)c2ccccc21 (stereo not given) | inactive: -0.84%
74 | CCN(Cc1ccccc1)C(=O)Cn1cnc2c1c(=O)n(C)c(=O)n2C | inactive: -1.34%
75 | COC(=O)[C@H](CCSC)NC(=O)Cn1cnc2c(SC)nc(N)nc21 | inactive: -6.74%
76 | CN(C)C(=O)Cn1c(SCC(=O)N2CCCc3ccccc32)nc2ccccc21 | inactive: 6.98%
77 | O=C1NCN(c2ccccc2)C12CCN(c1nnnn1-c1ccccc1)CC2 | inactive: 1.27%
78 | Cc1ccc(/C=N\NC(=O)Cn2c(C)nc3ccccc32)o1 | inactive: -5.19%
79 | Cn1c(=O)c2c(ncn2CC(=O)Nc2ccc3c(c2)OCO3)n(C)c1=O | inactive: 1.97%
80 | CS(=O)(=O)c1cc([N+](=O)[O-])c2no[n+]([O-])c2c1 | inactive: -3.73%
81 | O=C(Cn1cnc2ccccc21)N1CCc2ccccc21 | inactive: 2.97%
82 | Cn1c(=O)n(CC(=O)Nc2ccc(F)cc2)c2ccccc21 | inactive: 0.5%
83 | CCOP1(=S)c2c(C)nn(CCC#N)c2N=C(c2ccccc2F)N1C (stereo not given) | inactive: 4.54%
84 | CN(C(=O)Cn1c(Cl)nc2c1c(=O)n(C)c(=O)n2C)C1CCS(=O)(=O)C1 (stereo not given) | inactive: -3.58%
85 | CCN1CCC(Nc2ccnc3cc(Cl)ccc23)CC1 | inactive: 3.44%
86 | C/C(=N\NC(=O)Cn1c(-c2ccccn2)nc2ccccc21)c1cccc(O)c1 | inactive: -2.49%
87 | N#Cc1ccc(NC(=O)Cn2c3[n+](c4ccc(C(F)(F)F)cc42)CCCCC3)cc1 | inactive: 1.86%
88 | O=C(Nc1nc2ccccc2n1CCN1CCOCC1)c1ccc(Cn2cc([N+](=O)[O-])cn2)o1 | inactive: 2.85%
89 | CCC(C)[C@H](NC(=O)N1CCn2c1nc1ccccc12)C(=O)NCCc1ccc(OC)c(OC)c1 (stereo not given in full) | inactive: -7.07%
90 | Cc1ccccc1NC(=O)Cn1c(NCC(C)O)nc2ccccc21 (stereo not given) | inactive: 2.98%
